Experimental data taken from US20080008771A1, “Nitric Oxide Dioxygenase Inhibitors” (priority 2004, published 2008).

Chains of the proteins cited; added tags and fusions are not shown. Lines headed by an entry give the natural chain unless they say otherwise; changes in a name come on top.
UniProt P39662: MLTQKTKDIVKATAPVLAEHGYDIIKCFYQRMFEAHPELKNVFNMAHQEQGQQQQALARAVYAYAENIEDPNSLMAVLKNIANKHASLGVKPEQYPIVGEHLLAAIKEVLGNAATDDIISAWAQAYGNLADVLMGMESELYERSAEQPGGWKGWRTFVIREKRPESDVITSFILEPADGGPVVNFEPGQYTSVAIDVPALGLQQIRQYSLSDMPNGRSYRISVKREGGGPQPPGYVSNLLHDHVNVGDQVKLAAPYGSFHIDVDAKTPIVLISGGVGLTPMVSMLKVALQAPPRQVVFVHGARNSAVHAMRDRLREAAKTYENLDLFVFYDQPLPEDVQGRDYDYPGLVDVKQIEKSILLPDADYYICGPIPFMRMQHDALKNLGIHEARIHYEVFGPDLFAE

Biological target: A. eutrophus flavohemoglobin (Cupriavidus necator, UniProt P39662)

Clc1ccc(COC(Cn2ccnc2)c2ccc(Cl)cc2Cl)cc1 (centres unmarked) [econazole]
Fraction inhibited as percentage of total activity, first (major) phase: (˜70%)
Fraction inhibited as percentage of total activity, second (minor) phase: (˜30%)
